How the values were obtained:
Galectin-8 = molecular target: T1, Galectin-8 (Homo sapiens, UniProt O00214); assay: GST pulldown of in vitro translated radiolabeled TRIMs with GST-Galectin-8; assay type: binding; details: in vitro translated 35S-Myc-HA-TRIMs
T1 construct: made in house; host or cells: Escherichia coli SoluBL21
T1 sequence (O00214 1-359 isoform O00214-2): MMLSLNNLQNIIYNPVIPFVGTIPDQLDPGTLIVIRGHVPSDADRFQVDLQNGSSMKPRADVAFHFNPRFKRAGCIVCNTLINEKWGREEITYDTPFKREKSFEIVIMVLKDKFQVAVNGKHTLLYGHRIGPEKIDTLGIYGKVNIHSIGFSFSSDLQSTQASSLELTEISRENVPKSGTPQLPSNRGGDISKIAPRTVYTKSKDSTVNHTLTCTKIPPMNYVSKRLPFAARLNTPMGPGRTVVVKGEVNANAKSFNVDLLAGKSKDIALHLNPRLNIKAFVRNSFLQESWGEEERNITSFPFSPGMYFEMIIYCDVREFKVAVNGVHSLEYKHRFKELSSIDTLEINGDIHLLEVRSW
Description: (§1) GST-fusion proteins were expressed in Escherichia coli SoluBL21 (Amsbio). GST fusion proteins were purified and immobilized on glutathione-coupled sepharose beads (Amersham Bioscience, Glutathione-sepharose 4 Fast Flow) and pull-down assays with in vitro translated [^35S]-labeled proteins were done as described previously (Pankiv et al., 2007). The [^35S] labeled proteins were produced using the TNT T7 Quick Coupled Transcription/Translation System (Promega) in the presence of [^35S] L-methionine. The proteins were eluted from washed beads by boiling in SDS-PAGE gel loading buffer. separated by SDS-PAGE, and radiolabeled proteins were detected in a Fujifilm bioimaging analyzer BAS-5000 (Fuji).

Chains of the proteins cited; added tags and fusions are not shown.
UniProt P17931, whole entry: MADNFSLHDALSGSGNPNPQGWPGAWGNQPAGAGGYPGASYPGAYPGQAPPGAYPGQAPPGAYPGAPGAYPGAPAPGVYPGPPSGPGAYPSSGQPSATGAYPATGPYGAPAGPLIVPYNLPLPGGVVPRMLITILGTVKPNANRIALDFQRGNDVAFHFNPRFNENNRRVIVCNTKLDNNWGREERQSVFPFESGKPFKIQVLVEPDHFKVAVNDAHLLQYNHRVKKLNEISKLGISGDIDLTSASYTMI

Galectin-3 = molecular target: T2, Galectin-3 (Homo sapiens, UniProt P17931); assay: GST pulldown of in vitro translated radiolabeled TRIMs with GST-Galectin-3; assay type: binding; details: in vitro translated 35S-Myc-HA-TRIMs, no ULK1 added
T2 construct: made in house; host or cells: Escherichia coli SoluBL21
Description: as §1

binding to GST-Galectin-8 in GST pulldown (Galectin-8): bound
binding to GST-Galectin-3 in GST pulldown (Galectin-3): bound
B1: TRIM23: TRIM (tripartite motif) protein tested in GST-Galectin pulldowns (protein, UniProt P36406 1-574, looked up)
E3 ubiquitin-protein ligase …: MATLVVNKLGAGVDSGRQGSRGTAVVKVLECGVCEDVFSLQGDKVPRLLLCGHTVCHDCLTRLPLHGRAIRCPFDRQVTDLGDSGVWGLKKNFALLELLERLQNGPIGQYGAAEESIGISGESIIRCDEDEAHLASVYCTVCATHLCSECSQVTHSTKTLAKHRRVPLADKPHEKTMCSQHQVHAIEFVCLEEGCQTSPLMCCVCKEYGKHQGHKHSVLEPEANQIRASILDMAHCIRTFTEEISDYSRKLVGIVQHIEGGEQIVEDGIGMAHTEHVPGTAENARSCIRAYFYDLHETLCRQEEMALSVVDAHVREKLIWLRQQQEDMTILLSEVSAACLHCEKTLQQDDCRVVLAKQEITRLLETLQKQQQQFTEVADHIQLDASIPVTFTKDNRVHIGPKMEIRVVTLGLDGAGKTTILFKLKQDEFMQPIPTIGFNVETVEYKNLKFTIWDVGGKHKLRPLWKHYYLNTQAVVFVVDSSHRDRISEAHSELAKLLTEKELRDALLLIFANKQDVAGALSVEEITELLSLHKLCCGRSWYIQGCDARSGMGLYEGLDWLSRQLVAAGVLDVA
